For 1 compound, LC retention time results are on record in the RepoRT retention time repository (doi:10.1016/j.chroma.2015.11.014).

This data set in a line: RP, Agilent ZORBAX Eclipse Plus C18, 150 × 2.1 mm, 3.5 µm, 40 °C, 0.3 mL/min, estimated dead time 1.1 min; A: water + 0.1% formic acid; B: acetonitrile + 0.1% formic acid; gradient (min/%B) 0/2 1/2 2/20 16.5/98 22/98. Conditions: stereoisomer not certain.

Turning to `CCC[N+](CCC)(CCC)CCC`, the LC retention time was 5.57 min.
